Laboratory results taken from PubChem BioAssay (NCI).
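Protocol summary: plate cells (96-well), add compound at 5 concentrations, incubate 48 h, interpolate endpoints linearly. At the TGI there is no net growth.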

Key:
Assay in all cases: NCI tumour cell line growth inhibition, 48 h
[1] = test system: T-47D breast
[2] = test system: OVCAR-5 ovarian
[3] = test system: KM12 colon
[4] = test system: HOP-92 NSCLC
[5] = test system: CAKI-1 renal
[6] = test system: MOLT-4 leukemia
[7] = test system: A498 renal
[8] = test system: SF-268 CNS
[9] = test system: EKVX NSCLC
[10] = test system: MDA-MB-231 breast
[11] = test system: SR leukemia
[12] = test system: M14 melanoma
[13] = test system: UACC-62 melanoma
[14] = test system: SF-539 CNS
[15] = test system: UACC-257 melanoma
[16] = test system: OVCAR-3 ovarian
[17] = test system: SK-MEL-2 melanoma
[18] = test system: IGROV1 ovarian
[19] = test system: RPMI-8226 leukemia
[20] = test system: OVCAR-4 ovarian
[21] = test system: BT-549 breast
[22] = test system: SNB-19 CNS
[23] = test system: HCT-15 colon
[24] = test system: MDA-N
[25] = test system: SNB-75 CNS
[26] = test system: RXF 393 renal
[27] = test system: NCI-H322M lung
[28] = test system: HOP-62 NSCLC
[29] = test system: SK-OV-3 ovarian
[30] = test system: HS 578T breast
[31] = test system: NCI-H460 lung
[32] = test system: HCC-2998 colon
[33] = test system: NCI-H23 lung
[34] = test system: NCI-H522 lung
[35] = test system: MDA-MB-435
[36] = test system: SW-620 colon
[37] = test system: LOX IMVI melanoma
[38] = test system: 786-0 renal
[39] = test system: HT29 colon
[40] = test system: HL-60(TB) leukemia
[41] = test system: SN12C renal
[42] = test system: PC-3 prostate
[43] = test system: COLO 205 colon
[44] = test system: NCI/ADR-RES ovarian
[45] = test system: HCT-116 colon
[46] = test system: DU-145 prostate
[47] = test system: A549 NSCLC
[48] = test system: UO-31 renal
[49] = test system: K-562 leukemia
[50] = test system: MALME-3M melanoma
[51] = test system: SF-295 CNS
[52] = test system: U251 CNS
[53] = test system: CCRF-CEM leukemia
[54] = test system: TK-10 renal
[55] = test system: MCF7 breast
[56] = test system: SK-MEL-5 melanoma
[57] = test system: NCI-H226 lung
[58] = test system: ACHN renal
[59] = test system: OVCAR-8 ovarian

`CN(C(=O)COc1cc(Cl)c(Cl)cc1Cl)[C@@H]1CCCC[C@@H]1N1CCCC1` showed a TGI [1] of over 100 µM, a TGI [2] of over 100 µM and a TGI [3] of over 100 µM. For the same molecule, the TGI [4] was over 100 µM, the TGI [5] was over 100 µM and the TGI [6] was over 100 µM. For the same molecule, the TGI [7] was 39.2 µM, the TGI [8] was over 100 µM and the TGI [9] was over 100 µM. The TGI [10] was over 100 µM, the TGI [11] was over 100 µM and the TGI [12] was 31.9 µM. For the same molecule, the TGI [13] was 62.3 µM, the TGI [14] was over 100 µM and the TGI [15] was 55.2 µM. For the same molecule, the TGI [16] was over 100 µM, the TGI [17] was 45 µM and the TGI [18] was over 100 µM. The TGI [19] was over 100 µM, the TGI [20] was over 100 µM and the TGI [21] was over 100 µM. It also gave a TGI [22] of over 100 µM, a TGI [23] of over 100 µM and a TGI [24] of over 100 µM. For the same molecule, the TGI [25] was over 100 µM, the TGI [26] was over 100 µM and the TGI [27] was over 100 µM. It also gave a TGI [28] of over 100 µM, a TGI [29] of over 100 µM and a TGI [30] of over 100 µM. For the same molecule, the TGI [31] was over 100 µM, the TGI [32] was 56.5 µM and the TGI [33] was over 100 µM. It also gave a TGI [34] of 74.5 µM, a TGI [35] of over 100 µM and a TGI [36] of over 100 µM. The TGI [37] was over 100 µM, the TGI [38] was over 100 µM and the TGI [39] was over 100 µM. For the same molecule, the TGI [40] was over 100 µM, the TGI [41] was over 100 µM and the TGI [42] was over 100 µM. The TGI [43] was 50 µM, the TGI [44] was over 100 µM and the TGI [45] was over 100 µM. The TGI [46] was over 100 µM, the TGI [47] was over 100 µM and the TGI [48] was over 100 µM. For the same molecule, the TGI [49] was over 100 µM, the TGI [50] was over 100 µM and the TGI [51] was 63.6 µM. For the same molecule, the TGI [52] was over 100 µM, the TGI [53] was over 100 µM and the TGI [54] was over 100 µM. It also gave a TGI [55] of 92 µM, a TGI [56] of 31.2 µM and a TGI [57] of over 100 µM. It also gave a TGI [58] of over 100 µM and a TGI [59] of over 100 µM.
